From paper doi:10.1101/2025.02.07.636106
The list shows a part of the results.

Amino acid sequences for entries named in this document (tags omitted).
UniProt P60900, whole entry: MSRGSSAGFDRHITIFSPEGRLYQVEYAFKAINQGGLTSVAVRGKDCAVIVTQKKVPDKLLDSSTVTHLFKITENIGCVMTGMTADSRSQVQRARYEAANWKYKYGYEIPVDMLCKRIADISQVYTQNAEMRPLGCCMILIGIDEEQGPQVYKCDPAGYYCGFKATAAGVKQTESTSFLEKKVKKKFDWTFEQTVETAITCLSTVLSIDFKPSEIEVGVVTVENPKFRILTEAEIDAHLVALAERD
UniProt Q02388, whole entry: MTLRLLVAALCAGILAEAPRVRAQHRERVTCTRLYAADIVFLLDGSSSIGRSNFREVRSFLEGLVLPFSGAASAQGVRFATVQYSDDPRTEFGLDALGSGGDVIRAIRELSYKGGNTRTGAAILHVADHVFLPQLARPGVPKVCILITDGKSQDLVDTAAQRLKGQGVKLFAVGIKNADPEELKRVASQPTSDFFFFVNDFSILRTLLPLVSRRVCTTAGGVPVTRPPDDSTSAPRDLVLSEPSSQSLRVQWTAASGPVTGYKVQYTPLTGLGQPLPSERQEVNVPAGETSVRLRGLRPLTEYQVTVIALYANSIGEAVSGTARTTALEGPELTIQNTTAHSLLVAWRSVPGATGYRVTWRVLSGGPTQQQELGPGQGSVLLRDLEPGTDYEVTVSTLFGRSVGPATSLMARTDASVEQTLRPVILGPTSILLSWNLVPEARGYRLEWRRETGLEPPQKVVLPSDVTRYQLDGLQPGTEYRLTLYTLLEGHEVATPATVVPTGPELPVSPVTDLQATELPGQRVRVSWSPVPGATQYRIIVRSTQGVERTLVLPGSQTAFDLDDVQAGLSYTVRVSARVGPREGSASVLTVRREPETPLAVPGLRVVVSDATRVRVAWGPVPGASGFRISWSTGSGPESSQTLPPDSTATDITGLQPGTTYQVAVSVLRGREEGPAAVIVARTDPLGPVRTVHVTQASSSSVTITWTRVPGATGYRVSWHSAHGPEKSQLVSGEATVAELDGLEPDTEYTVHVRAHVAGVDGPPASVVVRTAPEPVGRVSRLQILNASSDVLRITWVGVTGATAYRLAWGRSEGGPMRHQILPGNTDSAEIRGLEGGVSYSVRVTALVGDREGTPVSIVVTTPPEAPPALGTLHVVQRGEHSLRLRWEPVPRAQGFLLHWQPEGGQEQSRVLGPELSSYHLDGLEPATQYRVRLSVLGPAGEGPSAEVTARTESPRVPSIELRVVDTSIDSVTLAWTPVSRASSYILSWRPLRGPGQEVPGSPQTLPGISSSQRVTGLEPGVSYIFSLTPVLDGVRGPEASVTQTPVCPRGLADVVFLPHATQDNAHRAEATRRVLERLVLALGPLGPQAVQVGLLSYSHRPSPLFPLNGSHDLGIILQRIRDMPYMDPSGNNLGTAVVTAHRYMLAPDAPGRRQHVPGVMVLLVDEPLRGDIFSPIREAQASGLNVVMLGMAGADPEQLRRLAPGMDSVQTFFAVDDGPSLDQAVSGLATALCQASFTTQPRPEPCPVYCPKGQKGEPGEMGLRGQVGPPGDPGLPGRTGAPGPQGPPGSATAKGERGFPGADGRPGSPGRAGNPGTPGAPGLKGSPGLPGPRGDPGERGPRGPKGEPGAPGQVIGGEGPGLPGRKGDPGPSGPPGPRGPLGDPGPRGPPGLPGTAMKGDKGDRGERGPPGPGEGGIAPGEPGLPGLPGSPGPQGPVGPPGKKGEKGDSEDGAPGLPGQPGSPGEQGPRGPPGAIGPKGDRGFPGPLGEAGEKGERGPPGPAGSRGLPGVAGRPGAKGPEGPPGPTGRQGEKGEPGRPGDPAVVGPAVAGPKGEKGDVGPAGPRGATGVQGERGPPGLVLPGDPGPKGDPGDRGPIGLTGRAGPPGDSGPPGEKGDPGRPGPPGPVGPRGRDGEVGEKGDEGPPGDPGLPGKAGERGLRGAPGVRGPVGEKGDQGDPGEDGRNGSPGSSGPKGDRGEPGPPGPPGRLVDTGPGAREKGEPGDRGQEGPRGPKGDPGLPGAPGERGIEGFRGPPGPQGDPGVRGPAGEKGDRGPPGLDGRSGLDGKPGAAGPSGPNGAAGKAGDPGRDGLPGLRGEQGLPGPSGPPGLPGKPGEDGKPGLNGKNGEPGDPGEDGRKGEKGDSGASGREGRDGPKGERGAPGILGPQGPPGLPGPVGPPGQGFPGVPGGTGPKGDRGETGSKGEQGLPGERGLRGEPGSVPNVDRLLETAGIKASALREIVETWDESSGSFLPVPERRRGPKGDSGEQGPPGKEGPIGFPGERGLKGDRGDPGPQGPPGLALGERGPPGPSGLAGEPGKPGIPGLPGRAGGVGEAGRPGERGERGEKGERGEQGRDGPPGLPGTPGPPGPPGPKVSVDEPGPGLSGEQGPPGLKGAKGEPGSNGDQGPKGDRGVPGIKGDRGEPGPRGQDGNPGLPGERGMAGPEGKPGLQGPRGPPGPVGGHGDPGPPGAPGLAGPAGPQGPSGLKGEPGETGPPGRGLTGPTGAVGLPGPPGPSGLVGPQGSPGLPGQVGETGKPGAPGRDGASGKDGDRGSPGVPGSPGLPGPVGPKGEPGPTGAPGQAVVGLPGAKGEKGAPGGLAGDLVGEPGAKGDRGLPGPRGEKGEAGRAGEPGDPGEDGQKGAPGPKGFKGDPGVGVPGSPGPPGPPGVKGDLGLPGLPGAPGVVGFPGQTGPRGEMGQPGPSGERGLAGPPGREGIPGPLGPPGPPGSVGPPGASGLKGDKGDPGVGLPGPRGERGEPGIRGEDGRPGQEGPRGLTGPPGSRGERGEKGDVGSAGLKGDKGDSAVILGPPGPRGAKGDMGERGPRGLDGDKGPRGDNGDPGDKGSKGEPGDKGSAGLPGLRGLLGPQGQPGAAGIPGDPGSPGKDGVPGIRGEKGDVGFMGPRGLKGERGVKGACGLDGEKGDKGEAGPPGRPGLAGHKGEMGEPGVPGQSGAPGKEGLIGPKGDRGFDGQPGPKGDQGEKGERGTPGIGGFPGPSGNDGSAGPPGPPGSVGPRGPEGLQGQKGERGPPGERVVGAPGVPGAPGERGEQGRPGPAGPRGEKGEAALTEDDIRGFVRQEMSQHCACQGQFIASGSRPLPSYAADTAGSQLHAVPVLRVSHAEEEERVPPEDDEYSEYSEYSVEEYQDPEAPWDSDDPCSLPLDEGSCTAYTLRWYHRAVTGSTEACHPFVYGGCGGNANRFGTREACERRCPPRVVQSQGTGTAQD
UniProt P26368, whole entry: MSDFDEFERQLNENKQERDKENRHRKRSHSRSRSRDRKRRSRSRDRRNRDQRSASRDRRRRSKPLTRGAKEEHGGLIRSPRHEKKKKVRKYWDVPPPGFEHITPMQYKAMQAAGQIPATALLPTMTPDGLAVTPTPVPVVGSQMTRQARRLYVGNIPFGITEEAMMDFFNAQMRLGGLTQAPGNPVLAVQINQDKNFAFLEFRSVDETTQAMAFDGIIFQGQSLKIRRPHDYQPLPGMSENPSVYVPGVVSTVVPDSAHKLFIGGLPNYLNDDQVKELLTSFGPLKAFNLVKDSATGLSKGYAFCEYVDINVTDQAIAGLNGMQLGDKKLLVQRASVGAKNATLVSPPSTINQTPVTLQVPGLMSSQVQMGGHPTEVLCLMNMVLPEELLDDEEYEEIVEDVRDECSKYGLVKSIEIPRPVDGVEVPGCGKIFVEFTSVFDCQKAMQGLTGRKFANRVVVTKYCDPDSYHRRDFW

Assays:
[1] = biological target: Proteasome subunit alpha type-6 (UniProt P60900); assay: co-fractionation; co-fractionation
[2] = biological target: Collagen alpha-1(VII) chain (UniProt Q02388); assay: cross-link between two proteins; cross-linking mass spectrometry
[3] = biological target: Splicing factor U2AF 65 kDa subunit (UniProt P26368); assay: as above

Q: How did the “listed as a hit” value [1] turn out when Proteasome subunit beta type-5, P28074 was run?
A: yes

Q: With Kininogen-1, P01042 as the substance, how does the “listed as a hit” value [2] read?
A: yes

Q: For Splicing factor 3B subunit 1, O75533, which “listed as a hit” value [3] is on record?
A: yes
